Measured values reported in patent US9790217B2, “Pyridinyloxy- and phenyloxy-pyrazolyl compounds” (Hoffmann-La Roche Inc., priority 2014, dated 2017).

Amino acid sequences for entries named in this document (tags omitted). Residues count along the entry.
UniProt P19099, 25-503 limits assumed: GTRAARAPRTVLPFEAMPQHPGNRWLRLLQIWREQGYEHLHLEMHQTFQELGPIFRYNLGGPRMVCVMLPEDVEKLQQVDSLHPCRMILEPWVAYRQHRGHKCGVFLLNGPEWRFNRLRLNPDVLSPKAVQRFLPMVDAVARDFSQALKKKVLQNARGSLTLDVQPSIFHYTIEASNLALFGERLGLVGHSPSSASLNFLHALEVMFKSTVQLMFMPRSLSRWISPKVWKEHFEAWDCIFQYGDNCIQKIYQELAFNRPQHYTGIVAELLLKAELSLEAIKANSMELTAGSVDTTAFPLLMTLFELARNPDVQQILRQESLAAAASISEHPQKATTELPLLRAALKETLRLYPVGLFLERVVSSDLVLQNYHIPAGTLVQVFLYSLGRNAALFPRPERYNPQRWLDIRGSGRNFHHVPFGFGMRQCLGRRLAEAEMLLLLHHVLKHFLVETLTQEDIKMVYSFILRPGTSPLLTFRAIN
UniProt P15538, 25-503 limits assumed: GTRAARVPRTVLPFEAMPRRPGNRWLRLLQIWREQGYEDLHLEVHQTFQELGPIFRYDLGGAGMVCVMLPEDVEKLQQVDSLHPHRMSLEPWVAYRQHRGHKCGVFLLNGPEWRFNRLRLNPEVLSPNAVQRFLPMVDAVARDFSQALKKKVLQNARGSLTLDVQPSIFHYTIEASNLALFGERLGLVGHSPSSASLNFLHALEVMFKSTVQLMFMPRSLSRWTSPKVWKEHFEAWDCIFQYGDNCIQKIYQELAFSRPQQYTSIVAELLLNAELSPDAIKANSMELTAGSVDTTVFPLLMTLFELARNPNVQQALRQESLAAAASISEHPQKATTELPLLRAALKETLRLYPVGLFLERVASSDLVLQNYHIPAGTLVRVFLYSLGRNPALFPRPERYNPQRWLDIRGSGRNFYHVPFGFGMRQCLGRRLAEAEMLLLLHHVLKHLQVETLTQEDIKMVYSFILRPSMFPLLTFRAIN

What was measured:
human CYP11B2 = human CYP11B2 (Homo sapiens (Human), UniProt P19099); assay: G-402 cellular enzyme assay, human CYP11B2 (aldosterone release, HTRF); conditions: read-out: EC50 human CYP11B2; G-402 cells expressing human CYP11B2; 1 μM Deoxycorticosterone
Source text: (§1) Herein we identified the use of the G-402 cell line as a host cell to ectopically express (transiently or stably) enzymes of the CYP11 family. Specifically we developed stable G-402 cells expressing ectopically human CYP11B1, human CYP11B2, human CYP11A1, cynmolgus CYP11B1 or cynomolgus CYP11B2 enzyme activity. Importantly the identified cell line G-402 expresses co-factors (adrenodoxin and adrenodoxin reductase) important for the activity of the CYP11 family and no relevant enzyme activity of the CYP11 family (in comparison to H295R cells) was detected in these cells. Therefore the G-402 cell line is uniquely suited as a host cell for the ectopic expression of enzymes from the CYP11 family.
(§2) G-402 cells can be obtained from ATCC (CRL-1440) and were originally derived from a renal leiomyoblastoma.
(§3) The expression plasmids contains the ORF for either human/cyno CYP11B1 or CYP11B2 under the control of a suitable promoter (CMV-promoter) and a suitable resistance marker (neomycin). […] Individual cell-clones are then selected and assessed for displaying the desired enzymatic activity using 11-Deoxycorticosterone (Cyp11B2) or 11-Deoxycortisol (Cyp11B1) as a substrate. […]
(§4) [formula] wherein, A is the maximum y value, B is the EC50 factor determined using XLFit, C is the minimum y value and D is the slope value. […]

human CYP11B1 = human CYP11B1 (Homo sapiens (Human), UniProt P15538); assay: G-402 cellular enzyme assay, human CYP11B1 (cortisol release, HTRF); conditions: read-out: EC50 human CYP11B1; G-402 cells expressing human CYP11B1; 1 μM Deoxycortisol
Source text: as §1, §2, §3, §4

N#Cc1ccc(Oc2cn[nH]c2-c2ccccc2COc2cccnc2)cc1
EC50 (human CYP11B2): 0.52 µM | EC50 (human CYP11B1): 4.3 µM
